Test results taken from patent US20230044690A1, “PROGESTERONE FORMULATION TO TRIGGER OVULATION AND PROVIDE LUTEAL PHASE SUPPORT” (AUGUSTA UNIVERSITY RESEARCH INSTITUTE, INC., priority 2019, published 2023).

Tested on: ovulation
Test: Case study 3, first controlled stimulation cycle: Clomiphene citrate, trigger shot with 10,000 IU Novarel
Assay type: in vivo, human
Settings: 2 weeks post trigger, 100 mg Clomiphene citrate 5 days, 200 mg progesterone suppositories daily
Procedure: In the first controlled stimulation cycle, the patient received 100 mg Clomiphene citrate (CC) for 5 days starting on the 5th day of their period. […] The additional luteal phase support was initiated on day 3 after the trigger shot with 10,000 IU of Novarel, followed by daily suppositories with 200 mg of progesterone by suppositories.

**Q.** Which “Patient's hCG” value does the source give for “Novarel: trigger shot with 10,000 IU of Novarel” here?
**A.** negative
